# Laboratory results taken from PubChem BioAssay AID894 (National Center for Advancing Translational Sciences (NCATS), 2007).
# By UniProt entry, the sequences of proteins in these tests, tags left out. Where a name states a change or a piece, a line headed by the entry shows the natural chain unless it says otherwise.
# UniProt P15428: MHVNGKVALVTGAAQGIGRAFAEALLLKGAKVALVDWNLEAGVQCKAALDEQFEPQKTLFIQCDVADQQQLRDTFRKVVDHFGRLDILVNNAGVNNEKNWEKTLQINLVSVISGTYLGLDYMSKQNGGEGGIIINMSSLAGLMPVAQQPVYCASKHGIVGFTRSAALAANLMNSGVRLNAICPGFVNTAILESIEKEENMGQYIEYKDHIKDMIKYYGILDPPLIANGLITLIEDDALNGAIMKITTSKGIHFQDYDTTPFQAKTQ
# This is a selection; strong and weak results do not stand in their true shares. Results filed as inconclusive are left out. The source made the active and inactive calls. Calls follow the shape of the dose curve; as a rule, active = well fitted inhibition curve with a large enough effect (not every such curve was filed as active); inconclusive = small, poorly fitted or top-dose-only effect, or another doubt; inactive = no such curve, though single readings can be large or run the other way.
# Biological target: 15-hydroxyprostaglandin dehydrogenase [NAD(+)] (Homo sapiens) (UniProt P15428)
# Experiment: qHTS Assay for Inhibitors of HPGD (15-Hydroxyprostaglandin Dehydrogenase)
# Details: purified HPGD, NADH fluorescence kinetic, PGE2 substrate
# Potency is read from the fitted curve at half-maximal effect.
row,SMILES,Potency
1,O=P1(Nc2ccccn2)COc2ccccc2OC1,active: 5.62 µM
2,O=P1(Nc2ncccn2)COc2ccccc2OC1,active: 25.1 µM
3,O=P1(Nc2ccc(Br)cn2)COc2ccccc2OC1,active: 15.8 µM
4,O=P(Nc1nccs1)(c1ccccc1)c1nc2ccccc2s1 (configuration not stated),active: 0.891 µM
5,Oc1c(Cl)c(Cl)c(Cl)c(Cl)c1Cl,active: 14.1 µM
6,Cc1c2c(nc3ccccc13)SC(C(Cl)Cl)C2 (configuration not stated),active: 25.1 µM
7,Cc1cc(SC(NC(=O)c2ccccc2)C(Cl)(Cl)Cl)nc(C(C)C)n1 (configuration not stated),active: 17.8 µM
